Literature values in PMC6731456.

The chains behind the UniProt entries cited, without tags or fusion partners. Where a name states a change or a piece, a line headed by the entry shows the natural chain unless it says otherwise. Residues count along the entry.
UniProt P35414: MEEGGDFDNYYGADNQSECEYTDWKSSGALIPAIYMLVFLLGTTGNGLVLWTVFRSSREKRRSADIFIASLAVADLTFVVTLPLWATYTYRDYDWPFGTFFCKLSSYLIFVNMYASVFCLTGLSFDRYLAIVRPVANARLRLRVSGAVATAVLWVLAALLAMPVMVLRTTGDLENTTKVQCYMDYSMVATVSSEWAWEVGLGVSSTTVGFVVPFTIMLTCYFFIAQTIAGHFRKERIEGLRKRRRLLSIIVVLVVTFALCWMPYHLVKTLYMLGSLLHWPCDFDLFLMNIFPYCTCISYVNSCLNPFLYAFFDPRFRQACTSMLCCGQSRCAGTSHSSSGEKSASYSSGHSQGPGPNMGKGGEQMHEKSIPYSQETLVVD
UniProt Q9ULZ1, 39-77: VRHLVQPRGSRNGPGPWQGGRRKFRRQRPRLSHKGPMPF

Key:
[1] = target: Apelin receptor (Homo sapiens) (UniProt P35414); assay: radioligand binding
[2] = target: Apelin receptor (Homo sapiens) (UniProt P35414); assay: competition radioligand binding

Row | Kd [1] | Ki [2] | Substance
1 | 2.5 nM |  | [3H]-[Pyr1]-[Met75(O)]apelin-13 apelin-13 (from UniProt Q9ULZ1)
2 |  | 1.5 nM | [Pyr1]apelin-13 apelin-13 (from UniProt Q9ULZ1)

Second part, the substance before the results:

Row | Substance | Kd [1] | Ki [2]
3 | [125I]-[Nle75, Tyr77]apelin-36 apelin-36 (from UniProt Q9ULZ1) | 0.0063 nM | 
4 | [125I]-[Pyr1]-[Nle75, Tyr77]apelin-13 apelin-13 (from UniProt Q9ULZ1) | 0.02 nM | 
5 | [125I]apelin-13 apelin-13 (from UniProt Q9ULZ1) | 0.63 nM | 
